{"source": "patent US6228889A", "about": "“Methods for treatment of conditions associated with lactosylceramide” (priority 1999, dated 2001)", "key": {"Mac-1 (CD11b/CD18)": {"test_system": "Mac-1 (CD11b/CD18)", "assay": "Flowcytometric analysis of Mac-1 expression on PMNs", "details": "inhibitor 20 minutes, then 100 nmol/L LacCer 20 minutes; BPB 10 μmol/L"}, "phospholipase A2": {"test_system": "phospholipase A2", "assay": "Phospholipase A2 activity in human PMNs", "details": "10 μmol/L"}}, "note": "This is a selection: effects in other tests are not listed, and their absence says nothing.", "data": [{"substance": "bromophenacyl bromide", "values": [{"measurement": "effect on LacCer-stimulated Mac-1 upregulation on PMNs", "setting": "Mac-1 (CD11b/CD18)", "value": "completely abrogated"}, {"measurement": "LacCer induced PL-AZ activity in human PMNs", "setting": "phospholipase A2", "value": "completely abrogated"}]}]}
